Consider one compound from US20090054439A1.

By UniProt entry, the sequences of proteins in these tests, tags left out.
UniProt O43614, whole entry: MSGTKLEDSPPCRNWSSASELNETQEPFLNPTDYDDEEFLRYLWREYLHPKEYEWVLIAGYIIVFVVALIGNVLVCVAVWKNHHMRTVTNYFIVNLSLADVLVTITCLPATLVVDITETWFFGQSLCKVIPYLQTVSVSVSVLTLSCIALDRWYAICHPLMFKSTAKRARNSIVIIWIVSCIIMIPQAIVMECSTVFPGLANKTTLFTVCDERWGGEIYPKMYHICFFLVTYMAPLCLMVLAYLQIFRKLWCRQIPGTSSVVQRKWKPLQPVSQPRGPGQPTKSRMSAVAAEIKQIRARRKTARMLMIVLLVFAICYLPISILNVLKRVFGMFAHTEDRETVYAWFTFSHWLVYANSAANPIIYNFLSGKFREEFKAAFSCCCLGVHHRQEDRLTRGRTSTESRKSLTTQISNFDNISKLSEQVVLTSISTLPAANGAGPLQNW

This assay addresses human orexin 2 receptors (Homo sapiens, UniProt O43614). Kind of assay: in vitro binding: displacement of radioiodinated orexin A bound to human orexin 2 receptors expressed in CHO cells (membranes). The conditions noted are these: read-out: IC50 OX 2; displacement of radioiodinated orexin A (100 pM), CHO cell membranes, 30 minutes at 25° C. On the procedure:
They have in particular been tested with regard to their effects. […] This method consists in studying the displacement of radioiodinated orexin A bound to human orexin 2 receptors expressed in CHO cells. The test is carried out on membranes in an incubation buffer of 50 mm Hepes, 1 mM MgCl2, 25 mm CaCl2, 0.025% NaN3, 1% bovine serum albumin (BSA) and 100 pM of ligand for 30 minutes at 25° C. The reaction is halted by filtering and washing on a Whatman GF/C filter. The nonspecific binding is measured in the presence of 10^−6 M of human orexin B. The IC50 (concentration which inhibits the binding of the radioiodinated orexin A to its receptors by 50%) values are low, less than 300 nM, in particular less than 100 nM and more particularly less than 30 nM.

By IC50 is commonly meant the concentration at which inhibition is half-maximal. In the case of `COc1ccc(S(=O)(=O)N(CC(C)O)c2c(Cc3c(F)cccc3F)cccc2OC)cc1OC` (stereo not shown), the IC50 came out at 37 nM.
